Hits are enriched below; roughly 1.8% of the tested compounds scored in any of these assays.
UUG fidelity – yeast start codon fidelity modulation | S. cerevisiae UUG-firefly luciferase reporter, luminescence/redox ratio | activity score, % at 18.7 µM | 350,000 tested, 0.13% active;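 active = replicate mean at a twofold rise or more, about +100% in these data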;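 also: firefly luciferase made from a UUG start codon reports start codon fidelity; reporter light over untreated wells divided by growth signal over untreated wells; some hits fall short of that in this replicate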
E-sel inducer – E-selectin induction in HUVECs, primary screen, imaging, HUVEC, immunofluorescence imaging, single point | P16581 | normalized: neutral wells 0, TNF-alpha wells 100 | activation, % at 7.58 µM | actives 0.37% (n = 260,000) | AID 686992, 2013;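 active means mean E-selectin-positive cell signal at least 10% of the positive control, reached in at least 60% of replicates, without over 20% cell loss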
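System: HUVEC, human umbilical vein endothelial cells; quantity: 3,000 cells/well; buffer or medium: EGM-2 medium, gelatin-coated wells; dosing: single-point compound dose; detection: immunofluorescence imaging; evaluation: % PE-positive cells; benchmarks: TNF-alpha, DMSO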
Cneo AK release – Cryptococcus neoformans cell lysis inducers, primary screen, AK release luminescence, single concentration; C. neoformans lysis, adenylate kinase release luminescence, 4 h; normalised: neutral wells 0, clomiphene wells 100; lysis activity, % at 15 µM; actives 0.2% (n = 360,000); AID 651654, 2012;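 active means mean lysis activity across replicates of at least 80%, whatever share of replicates individually reach that level; inactive means mean lysis activity below 80%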
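read-out = cell lysis signal | test system = log-phase Cryptococcus neoformans yeast cells | input = cells at 5 × 10^6 per mL | medium = fresh YPD growth medium | signal = luminescent adenylate kinase detection reagent | timing = 4 h at 37 °C static, read 1 h later | dosing = single dose | controls = Clomiphene as positive lysis control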
DENV2 CPE rescue – inhibitors of DENV2 cytopathic effect, primary screen, cell-based, plate reader, single concentration. actives 1.7% (n = 350,000). CPE inhibition, % at 9.99 µM. DENV2-infected cells, cytopathic effect rescue. AID 651640, 2012; in the data active means CPE inhibition above about 20%, passing the limit was not always enough; tested in BHK-21 cells;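 further: 0% = median of neutral control wells and 100% = median of positive control wells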
Starred values were filed as active, the others as inactive; . = no result given.

entry	Structure	UUG fidelity	E-sel inducer
1	O=C(N[C@H]1CC[C@@H](CC(=O)N2CCOCC2)O[C@@H]1CO)c1ccc2c(c1)OCO2	-11.4	0.1
2	C[C@@H]1CN([C@H](C)CO)C(=O)Cc2cc(NC(=O)Nc3ccc(C(F)(F)F)cc3)ccc2O[C@@H]1CN(C)S(=O)(=O)c1cccs1	-8.6	8.8
3	C[C@@H]1CN([C@H](C)CO)C(=O)c2cc(NC(=O)Nc3ccc(C(F)(F)F)cc3)ccc2O[C@H]1CN(C)S(=O)(=O)c1ccccc1	2.3	-1.5
4	Cc1noc(C)c1NC(=O)Nc1ccc2c(c1)CC(=O)N([C@@H](C)CO)C[C@@H](C)[C@H](CN(C)S(=O)(=O)c1cccs1)O2	4.7	12.0
5	Cc1noc(C)c1NC(=O)Nc1ccc2c(c1)CC(=O)N([C@H](C)CO)C[C@H](C)[C@H](CN(C)S(=O)(=O)c1ccccc1)O2	1.3	47.5*
6	Cc1noc(C)c1NC(=O)Nc1ccc2c(c1)CC(=O)N([C@@H](C)CO)C[C@@H](C)[C@@H](CN(C)S(=O)(=O)c1cccs1)O2	45.5	-9.5
7	CC(=O)N1CC(=O)N2[C@H](CO)[C@H](c3ccc(C#Cc4cccnc4)cc3)[C@@H]2C1	.	0.7
8	C[C@H](CO)N1C[C@H](C)[C@H](CN(C)Cc2ccc(C(=O)Nc3ccccc3N)cc2)Oc2ccc(NS(=O)(=O)c3ccc(Cl)cc3)cc2CC1=O	.	2.0
9	COc1cccc(S(=O)(=O)N2CCC3(CC2)CN[C@H](CO)c2[nH]c4cc(OC)ccc4c23)c1	.	-0.2
10	C[C@H](CO)N1C[C@H](C)[C@@H](CN(C)S(=O)(=O)c2ccccc2)Oc2ccc(NC(=O)Nc3ccc(C(F)(F)F)cc3)cc2CC1=O	.	0.5
11	C[C@H]1CN([C@@H](C)CO)C(=O)Cc2cc(NC(=O)Nc3ccccc3)ccc2O[C@H]1CN(C)S(=O)(=O)c1cccs1	11.4	-0.3
12	O=C(c1ccccc1)C(O)(Cc1ccccc1)c1ccccc1 (stereo not given)	6.0	0.1

entry	Cneo AK release	DENV2 CPE rescue
1	3.3	8.8
2	-1.5	26.9*
3	0.6	33.1*
4	-1.1	0.6
5	-2.3	-4.3
6	55.7	35.8*
7	.	-6.6
8	.	-2.1
9	.	-17.4
10	.	64.6*
11	7.0	33.0*
12	-1.0	35.9*

The listing continues.
entry	Structure	UUG fidelity	E-sel inducer
13	CCOc1cc(C(=O)N(C)CC(=O)Nc2cccc3ccccc23)ccc1OC	.	.
14	O=C(Cc1ccccc1)N1C[C@H]2[C@@H](c3ccccc31)[C@@H](CO)N2C(=O)c1cccc(F)c1	8.5	0.8
15	O=C(c1cccc(F)c1)N1C[C@@H]2[C@H](c3ccccc31)[C@@H](CO)N2C(=O)C1CC1	-0.2	-0.1
16	O=C(C1CC1)N1C[C@@H]2[C@H](c3ccccc31)[C@@H](CO)N2C(=O)c1ccccc1	4.4	0.8
17	O=C(C1CCOCC1)N1C[C@@H]2[C@H](c3ccccc31)[C@H](CO)N2C(=O)c1ccccc1	9.1	0.8
18	O=C(Cc1ccccc1)N1C[C@@H]2[C@H](c3ccccc31)[C@H](CO)N2C(=O)c1cccc(F)c1	5.5	0.7
19	O=C(c1cccc(F)c1)N1C[C@@H]2[C@H](c3ccccc31)[C@H](CO)N2C(=O)C1CCOCC1	-4.4	-0.9
20	CC(C)c1ccc(NC(=O)C[C@H]2CC[C@H]3[C@@H](COc4ccc(NC(=O)c5ccno5)cc4C(=O)N3C)O2)cc1	.	0.4
21	C[C@@H](NC(=O)C[C@H]1CC[C@H](NC(=O)C2CCC2)[C@@H](CO)O1)c1ccccc1	-20.9	0.0
22	CC(C)NC(=O)N[C@@H]1CC[C@@H](CCNC(=O)C2CC2)O[C@H]1CO	5.2	0.2
23	CC(C)NC(=O)N[C@H]1CC[C@H](CCNC(=O)C2CC2)O[C@H]1CO	-9.2	-0.3
24	CC(C)NC(=O)N[C@H]1CC[C@@H](CCNC(=O)C2CC2)O[C@@H]1CO	10.5	-0.3

entry	Cneo AK release	DENV2 CPE rescue
13	.	41.6*
14	6.1	36.9*
15	-4.3	55.4*
16	-3.8	-0.2
17	-4.9	89.0*
18	4.2	-9.8
19	9.4	22.6*
20	67.0	-2.4
21	-2.2	17.6
22	-5.6	-2.5
23	6.0	-11.6
24	93.2*	-8.7

Next section:
entry	Structure	UUG fidelity	E-sel inducer
25	CC(C)NC(=O)N[C@H]1CC[C@@H](CCNC(=O)C2CC2)O[C@H]1CO	-6.6	0.0
26	CN(C)CC(=O)N1[C@H](CO)[C@@H](c2ccc(C#CC3CCCC3)cc2)[C@@H]1C#N	-0.7	1.0
27	CN(C)CC(=O)N1[C@H](CO)[C@H](c2ccc(C#CC3CCCC3)cc2)[C@@H]1C#N	9.4	0.5
28	N#C[C@H]1[C@H](c2ccc(C#CC3CCCCC3)cc2)[C@@H](CO)N1C(=O)Cc1ccccn1	-15.1	-0.2
29	COc1ccc(NC(=O)N[C@@H]2CC[C@H](CCNC(=O)c3cc(Cl)cc(Cl)c3)O[C@H]2CO)cc1	-1.8	-2.3
30	COC(=O)[C@@]1(Sc2ccc(C)cc2)CC(=O)N[C@@H]1c1ccccc1	.	5.4
31	COC(=O)[C@]1(Sc2ccc(OC)cc2)CC(=O)N[C@@H]1c1ccccc1	.	6.1
32	C=CCNC(=O)[C@@H]1[C@H]2C(=O)O[C@H](c3ccccc3)[C@H](c3ccccc3)N2[C@H](c2ccc(O)cc2)[C@@]12C(=O)N(C(=O)OCCOC)c1ccc(C#Cc3ccc(OC)cc3)cc12	-3.0	.
33	CCC(C)CN1C(=O)CSCC1(C)C(=O)Nc1ccc2c(c1)OCCO2 (stereo not given)	.	-0.1
34	COCCN1C(=O)CSCC1(C)C(=O)Nc1ccc2c(c1)OCCO2 (stereo not given)	.	-0.1
35	COc1ccc(C#Cc2cnc3c(c2)C(=O)N([C@@H](C)CO)C[C@H](C)[C@H](CN(C)CC2CCCC2)O3)cc1	3.6	1.5
36	COc1ccc(C#Cc2cnc3c(c2)C(=O)N([C@@H](C)CO)C[C@H](C)[C@@H](CN(C)CC2CCCC2)O3)cc1	43.6	2.3

entry	Cneo AK release	DENV2 CPE rescue
25	92.2*	-0.7
26	-0.2	34.1*
27	4.9	6.2
28	0.9	86.8*
29	-9.0	0.4
30	.	-6.9
31	.	72.3*
32	7.2	-8.6
33	.	31.4*
34	.	-0.2
35	3.9	37.0*
36	0.8	0.3

Continued.
entry	Structure	UUG fidelity	E-sel inducer
37	C[C@@H]1CN([C@@H](C)CO)C(=O)c2cc(-c3ccc(F)cc3)cnc2O[C@@H]1CN(C)CC1CCCC1	15.5	-0.1
38	C[C@@H]1CN([C@@H](C)CO)C(=O)c2cc(-c3ccc(F)cc3)cnc2O[C@H]1CN(C)CC1CCCC1	9.1	1.7
39	COc1ccc(C#Cc2cnc3c(c2)C(=O)N([C@H](C)CO)C[C@H](C)[C@H](CN(C)CC2CCCC2)O3)cc1	8.1	1.4
40	CNC[C@H]1Oc2ccc(NC(=O)Cc3ccccc3)cc2C(=O)N([C@H](C)CO)C[C@H]1C	3.5	0.0
41	CC(C)CNC(=O)C1Nc2ccccc2C2C=CCC12 (stereo not given)	-24.8	.
42	COC(=O)CNC(=O)C1Nc2ccccc2C2C=CCC12 (stereo not given)	-20.0	.
43	COc1ccc(Cl)cc1NC(=O)CN(C)C(=O)C1COc2ccccc2O1 (stereo not given)	-18.6	0.5

entry	Cneo AK release	DENV2 CPE rescue
37	1.5	-7.8
38	-2.1	53.9*
39	2.0	40.5*
40	4.9	0.3
41	1.5	63.2*
42	0.7	15.2
43	-0.8	73.5*

Ordered by formula weight (ascending): some entries from above.
entry	Structure	UUG fidelity	E-sel inducer
27	CN(C)CC(=O)N1[C@H](CO)[C@H](c2ccc(C#CC3CCCC3)cc2)[C@@H]1C#N	9.4	0.5
29	COc1ccc(NC(=O)N[C@@H]2CC[C@H](CCNC(=O)c3cc(Cl)cc(Cl)c3)O[C@H]2CO)cc1	-1.8	-2.3
8	C[C@H](CO)N1C[C@H](C)[C@H](CN(C)Cc2ccc(C(=O)Nc3ccccc3N)cc2)Oc2ccc(NS(=O)(=O)c3ccc(Cl)cc3)cc2CC1=O	.	2.0

entry	Cneo AK release	DENV2 CPE rescue
27	4.9	6.2
29	-9.0	0.4
8	.	-2.1
